Biological target: T1, human bradykinin B2 receptor (Homo sapiens, UniProt P30411)
T1 construct: expressed in transfected cells; host or cells: Saccharomyces cerevisiae strain YEW3 (Gpa1/Gαq transplant), episomal vector p426GPD
Assay: Double reporter gene assay (antagonist format), yeast strain YEW3 (Gpa1/Gαq)
Format: cell-based
Conditions: each well 1 nM bradykinin agonist plus dilutions of antagonist; 2 mM 3-AT; FIG. 5
Experimental: All measurements are averages from triplicate determinations.
Yeast strain YLJ21 was transformed either with the empty vector p426GPD or with human GPCRs EDG1 and EDG5 which had been cloned into p426GPD. The transformed yeasts were then cultivated in 2 ml of SC/Gluc-Ura at 30° C. overnight. […] The plates were incubated with shaking (700 rpm) at 30° C. for 23 h. The turbidity resulting from growth of the yeast cells was measured at 630 nm in the photometer (FIGS. 3A and B, in each case left-hand graph). This was followed by adding 50 μl of assay mix per well.
The yeast strain YEW3 (Gpa1/Gαq) was transformed either with the empty vector p426GPD or the human bradykinin B2 receptor cloned into p426GPD. The assay was carried out in a similar way to example 2. The only difference was that each well of the test plate contained 1 nM bradykinin agonist, to which dilutions of the antagonist HOE140 (Sigma; Hall, Gen.Pharmacol. 28,1-6 (1997)) had been added. […] Thus the double reporter gene assay is also suitable for antagonist assays.

Sequences of proteins named here, by UniProt entry; tags and fusion partners are left off.
UniProt P30411, whole entry: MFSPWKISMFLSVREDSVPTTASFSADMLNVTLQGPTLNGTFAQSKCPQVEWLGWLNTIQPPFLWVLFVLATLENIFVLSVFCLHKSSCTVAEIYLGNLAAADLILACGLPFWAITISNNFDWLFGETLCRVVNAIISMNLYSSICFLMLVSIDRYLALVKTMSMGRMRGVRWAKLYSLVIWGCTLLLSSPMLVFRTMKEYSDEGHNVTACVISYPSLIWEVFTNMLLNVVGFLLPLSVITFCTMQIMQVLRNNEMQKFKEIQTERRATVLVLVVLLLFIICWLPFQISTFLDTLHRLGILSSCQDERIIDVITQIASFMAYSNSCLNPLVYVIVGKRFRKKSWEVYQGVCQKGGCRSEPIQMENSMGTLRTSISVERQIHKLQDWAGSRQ

Substance: HOE140
- effect on the signal caused by bradykinin (β-galactosidase activity, absorption at 574 nm): suppress the signal caused by bradykinin to the background level
